This is a selection; strong and weak results do not stand in their true shares. Some salts and complexes are drawn in separate pieces, as the source files them; their charges need not balance. Active and inactive are the calls of the source.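 Rule for the calls: active = activation above the mean activation of all tested compounds plus 3 SD, per screening run (cut at about 20% in these data); inactive = the rest.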

Amino acid sequences for entries named in this document (tags omitted).
UniProt P37288, whole entry: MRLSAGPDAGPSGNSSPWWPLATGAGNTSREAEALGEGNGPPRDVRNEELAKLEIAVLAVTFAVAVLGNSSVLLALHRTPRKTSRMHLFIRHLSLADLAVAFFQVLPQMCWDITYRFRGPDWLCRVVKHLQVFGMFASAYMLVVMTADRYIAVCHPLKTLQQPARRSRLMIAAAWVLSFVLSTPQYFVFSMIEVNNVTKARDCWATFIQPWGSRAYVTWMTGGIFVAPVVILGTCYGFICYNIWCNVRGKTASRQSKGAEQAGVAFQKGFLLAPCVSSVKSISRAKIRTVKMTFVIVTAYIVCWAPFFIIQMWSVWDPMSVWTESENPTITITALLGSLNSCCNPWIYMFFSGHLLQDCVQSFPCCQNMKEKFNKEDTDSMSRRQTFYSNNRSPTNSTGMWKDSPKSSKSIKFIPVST

The test addresses Vasopressin V1a receptor (Homo sapiens) (UniProt P37288). Briefly: V1R activation via calcium rise – fluorescence, CHO-V1R cells, counter-screen for OXTR agonist project, primary screen (AID 2797).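 Note: signal is peak over basal fluorescence ratio across a 100 second FLIPR read.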 The following applies: Fluo-8 calcium fluorescence, agonist mode, at 3 µM, stronger effect = higher value, 0% DMSO, 100% 3 nM vasopressin.
Regarding `Cc1ccccc1NP(C)(=O)Nc1ccccc1C`, the activation is inactive: 0.82%. Under `CP(=O)(Nc1ccc2c(c1)OCCO2)Oc1ccccc1` (stereo unspecified) stands inactive: 1.37%.

On to `CCOP(C)(=S)SCC(=O)NC(C)(CC)C(=O)O` (stereo unspecified), for which the activation is inactive: 0.06%. Under `CP(=O)(Nc1ccc(SC(F)(F)F)cc1)Oc1ccc(F)cc1` (stereo unspecified) stands inactive: 1.48%; under `O=[N+]([O-])c1cc([N+](=O)[O-])c(NCC2CCS(=O)(=O)C2)c([N+](=O)[O-])c1` (stereo unspecified), inactive: 0.47%. With `COc1ccc(NP(C)(=O)Oc2ccccc2OC)cc1` (stereo unspecified), the activation is inactive: -0.01%. Under `CN(C)CCOC(=O)C(O)(c1ccccc1)C1CCCCC1` (stereo unspecified) stands inactive: 1.16%. Under `COc1ccc(OP(C)(=O)Nc2cccc(Br)c2)cc1` (stereo unspecified) stands inactive: 2.09%. Under `CCCCCOc1ccc(NP(C)(=O)Oc2ccc(Cl)cc2Cl)cc1` (stereo unspecified) stands inactive: -0.2%; under `O=[N+]([O-])c1cc([N+](=O)[O-])c(OC2CCCCC2O)c([N+](=O)[O-])c1` (stereo unspecified), inactive: -0.49%. `CP(=O)(Nc1ccccc1)Oc1ccc(F)cc1` (stereo unspecified): the activation was inactive: -0.2%.

For the molecule `CCN(CC)CCCOC(=O)C(O)(c1ccccc1)C1CCCCC1` (stereo unspecified), the activation was inactive: 1.13%. Under `COc1ccc(OP(C)(=O)Nc2ccc(SC(F)(F)F)cc2)cc1` (stereo unspecified) stands inactive: 0.48%; under `CCOC(=O)c1ccc(NP(C)(=O)Oc2ccc(F)cc2)cc1` (stereo unspecified), inactive: 2.57%; under `COc1ccc2c(c1O)-c1c(O)c(OC)cc3c1[C@H](C2)[N+](C)(C)CC3.O=[N+]([O-])c1cc([N+](=O)[O-])c([O-])c([N+](=O)[O-])c1[O-]`, inactive: 0.68%. Under `O=C(OCCN1CCN(CCOCc2ccccc2)CC1)C(O)(c1ccccc1)c1ccccc1` stands inactive: 2.98%; under `O=C(OC1CN2CCC1CC2)c1ccc([N+](=O)[O-])cc1` (stereo unspecified), inactive: 0.79%; under `CC(C)c1ccc(OP(C)(=O)Nc2ccc(SC(F)(F)F)cc2)cc1` (stereo unspecified), inactive: -0.08%. With `CP(=O)(Nc1ccccc1F)Oc1ccccc1` (stereo unspecified), the activation is inactive: -0.01%. Under `Cc1cc(C)cc(OP(C)(=O)Nc2ccccn2)c1` (stereo unspecified) stands inactive: -1.06%; under `CP(=O)(Nc1cccc(Br)c1)Oc1ccccc1` (stereo unspecified), inactive: 0.17%; under `Cc1ccc(C)c(NP(C)(=O)Oc2ccccc2)c1` (stereo unspecified), inactive: 1.04%.

Consider `Cc1cc(C)cc(OP(C)(=O)Nc2ccc(C)cc2C)c1` (stereo unspecified), for which the activation was inactive: 0.66%.

Take `CCOC(=O)c1ccc(NP(C)(=O)Oc2cc(C)cc(C)c2)cc1` (stereo unspecified): the activation is inactive: 3.39%. Under `COc1ccccc1OP(C)(=O)Nc1cccc(Br)c1` (stereo unspecified) stands inactive: -0.66%; under `CC1=NCCc2c1[nH]c1ccccc21.O=[N+]([O-])c1cc([N+](=O)[O-])c(O)c([N+](=O)[O-])c1`, inactive: -0.79%; under `O=C(O)c1cccc(Nc2c([N+](=O)[O-])cc([N+](=O)[O-])cc2[N+](=O)[O-])c1`, inactive: 0.25%.

Take `CCCOc1ccc(NP(C)(=O)Oc2ccc(Cl)cc2)cc1` (stereo unspecified): the activation was inactive: -0.78%. Under `CP(=O)(Nc1ccc(SC(F)(F)F)cc1)Oc1ccccc1` (stereo unspecified) stands inactive: 5.8%; under `COc1ccccc1OP(C)(=O)Nc1c(C)cccc1C` (stereo unspecified), inactive: -1.17%; under `CN1CCCCC1COC(=O)C1(O)c2ccccc2CCc2ccccc21` (stereo unspecified), inactive: 1.97%. Under `CCOC(=O)C(CC)C1=NC(C)(C)Cc2ccccc21.O=[N+]([O-])c1cc([N+](=O)[O-])c(O)c([N+](=O)[O-])c1` (stereo unspecified) stands inactive: -0.42%; under `CC1=C2N=C(C=C3N=C(C(C)=C4[N-][C@@](C)([C@@H]5N=C1[C@](C)(CCC(=O)NC[C@@H](C)OP(=O)([O-])O[C@H]1[C@@H](O)[C@@H](n6cnc7cc(C)c(C)cc76)O[C@@H]1CO)[C@H]5CC(N)=O)[C@@](C)(CC(N)=O)[C@@H]4CCC(N)=O)[C@@](C)(CC(N)=O)[C@@H]3CCC(N)=O)C(C)(C)[C@@H]2CCC(N)=O.[C-]#N.[Co+3]`, inactive: -0.15%.

`O=[N+]([O-])c1cc([N+](=O)[O-])c(Nc2nnnn2CCO)c([N+](=O)[O-])c1`: the activation was inactive: 1.14%. `Cc1nc2ccc3ccccc3c2s1.O=[N+]([O-])c1cc([N+](=O)[O-])c(O)c([N+](=O)[O-])c1`: the activation is inactive: -1.16%. In the case of `O=[N+]([O-])c1cc([N+](=O)[O-])c(-c2cnn(-c3ccccc3)c2)c([N+](=O)[O-])c1`, the activation was inactive: -0.48%. Turning to `O=[N+]([O-])c1cc([N+](=O)[O-])c(-n2nnc3ccccc32)c([N+](=O)[O-])c1`, the activation was inactive: 1.18%. `CP(=O)(Nc1ccccn1)Oc1ccc(Cl)cc1` (stereo unspecified): the activation was inactive: 2.35%. Under `CCOP(C)(=S)SCC(=O)NC(C)C(=O)O` (stereo unspecified) stands inactive: -0.07%; under `CCOC(=O)c1ccc(NP(C)(=O)Oc2ccc(OC)cc2)cc1` (stereo unspecified), inactive: 0.69%; under `O=[N+]([O-])c1cc([N+](=O)[O-])c(O)c([N+](=O)[O-])c1.c1ccc(Oc2ccncc2)cc1`, inactive: 0.36%. Under `Cc1cc(C)cc(OP(C)(=O)Nc2ccc(SC(F)(F)F)cc2)c1` (stereo unspecified) stands inactive: 1.12%; under `CP(=O)(NC(=O)Nc1ccccc1)Oc1ccccc1` (stereo unspecified), inactive: 1.77%. As for `CCc1ccc(OP(C)(=O)N2CCN(c3ccc([N+](=O)[O-])cc3)CC2)cc1` (stereo unspecified), the activation was inactive: 3.75%. Under `CP(=O)(Oc1ccccc1)OC(c1ccccc1)C(F)(F)F` (stereo unspecified) stands inactive: -0.68%; under `Cc1cccc(C)c1OP(C)(=O)Nc1ccc(SC(F)(F)F)cc1` (stereo unspecified), inactive: 11.2%; under `CP(=O)(Nc1ccc(SC(F)(F)F)cc1)Oc1ccc(Cl)cc1` (stereo unspecified), inactive: -0.61%. As for `COc1ccccc1OP(C)(=O)Nc1ccccc1` (stereo unspecified), the activation is inactive: -1.14%. For the molecule `CP(=O)(Nc1ccccc1Br)Oc1ccccc1` (stereo unspecified), the activation is inactive: -0.13%. Under `CP(=S)(Nn1cnnc1)Oc1ccccc1` (stereo unspecified) stands inactive: 0.53%; under `COc1ccc(OP(C)(=O)Nc2cccc(F)c2)cc1` (stereo unspecified), inactive: 2.19%; under `COc1ccccc1OP(C)(=O)Nc1cc(Cl)ccc1C` (stereo unspecified), inactive: -0.89%. Under `Cc1cc(C)cc(OP(C)(N)=O)c1` (stereo unspecified) stands inactive: 1.24%; under `CCOC(=O)c1ccc(NP(C)(=O)Oc2ccccc2)cc1` (stereo unspecified), inactive: 1.34%; under `Cc1ccc(NP(C)(=O)Oc2ccccc2)c(C)c1` (stereo unspecified), inactive: -0.23%. `COc1ccccc1OP(C)(=O)Nc1ccc(C)cc1` (stereo unspecified): the activation is inactive: 0.12%. Under `Cc1cccc(C)c1OP(C)(N)=O` (stereo unspecified) stands inactive: 1.01%; under `CC(C)(C)c1ccc(OP(C)(=O)Nc2ccc(SC(F)(F)F)cc2)cc1` (stereo unspecified), inactive: -0.29%; under `O=[N+]([O-])c1ccc2c(c1)C=Nc1ccccc1O2`, inactive: 2.37%. Under `O=[N+]([O-])c1cc([N+](=O)[O-])c(Nc2cccnc2)c([N+](=O)[O-])c1` stands inactive: 13.4%; under `CCN(CC)CCCOC(=O)C(O)(c1ccccc1)c1ccccc1`, inactive: 0.07%.

(Values after PubChem BioAssay AID2797 (The Scripps Research Institute Molecular Screening Center, 2010).)
